Consider 59 compounds from PubChem BioAssay AID493131 (Broad Institute, 2011).

Protein sequences, listed by entry. Tags and fused reporters are not part of them. Lines headed by an entry give the natural chain unless they say otherwise; changes in a name come on top.
UniProt P13346: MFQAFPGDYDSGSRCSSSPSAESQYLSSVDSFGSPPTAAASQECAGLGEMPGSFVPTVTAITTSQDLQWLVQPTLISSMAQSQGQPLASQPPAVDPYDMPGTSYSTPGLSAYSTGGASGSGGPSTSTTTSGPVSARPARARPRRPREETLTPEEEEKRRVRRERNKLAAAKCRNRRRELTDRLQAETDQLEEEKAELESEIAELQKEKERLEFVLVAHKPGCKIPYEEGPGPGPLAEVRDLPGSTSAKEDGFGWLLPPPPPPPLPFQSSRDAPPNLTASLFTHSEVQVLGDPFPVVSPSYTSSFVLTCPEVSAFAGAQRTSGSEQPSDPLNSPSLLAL

The entries are a selection whose mix differs from that of the whole data set. Active and inactive are the calls of the source.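 The calls were made as follows: active = mean activation above about 17%, with every replicate also reaching it (limit read from the data, passing the limit was not always enough); inconclusive = only one of the two conditions met; inactive = the rest.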

For this test, the target named is Protein FosB (Mus musculus) (UniProt P13346). Kind of test: activators of delta FosB homodimer, primary screen, biochemical, fluorescence polarization, TAMRA-CDK5 oligo, single point (AID 493131). The note with it: purified delta FosB, at 25 µM, hits give high values, percent of positive-control signal above neutral wells. (In general: Fluorescence polarisation rises when a labelled molecule tumbles more slowly, as on binding a larger partner.)
On to `COC(=O)c1cc2c(s1)N=C(c1ccccc1)N(C)P2(=O)N1CCOCC1` (centres undefined), for which the activation is inactive: -3.88%. Consider `CN(C)C(=O)Oc1noc2ccccc12`, for which the activation is inactive: -5.65%. To `O=c1c2cc([N+](=O)[O-])ccc2[nH]c2c([N+](=O)[O-])cc([N+](=O)[O-])cc12` belongs inactive: -1.16%; to `Cc1ccccc1OP(=O)(Nc1ccccn1)Oc1ccccc1C`, inactive: -9.71%; to `CC(NC(=O)COC(=O)C(O)(c1ccccc1)c1ccccc1)c1ccccc1` (centres undefined), inactive: -13.5%.

For the compound `Cc1ccc(NP(=O)(Oc2cccc(C)c2)Oc2cccc(C)c2)nc1`, the activation was inactive: -11.6%. The same measure for `c1ccc(-c2nn[nH]n2)c(-c2nn[nH]n2)c1`: inactive: 1.98%; for `CCNC(=S)/N=C(\N)N[N+](=O)[O-]`: inactive: -8.77%; for `O=C(NC1CCS(=O)(=O)C1)NP(=S)(Oc1ccccc1)Oc1ccccc1` (centres undefined): inactive: -0.924%. Turning to `O=P1(N(CCCl)CCCl)OCCC2CCCCN21` (centres undefined), the activation was inactive: 0.27%. The same measure for `C[C@@H]1C=CCP(=O)(Oc2ccccc2)O1` (some centres undefined): inactive: 5.48%.

On to `C[C@H]1OP(=O)(Oc2ccccc2)C[C@@H]2O[C@@H]21` (some centres undefined), for which the activation is inactive: -0.156%. To `Cc1ccccc1CN(C)C(=O)COC(=O)C(O)(c1ccccc1)c1ccccc1` belongs inactive: -11.6%. To `COC(=O)C1(C)COP(=O)(NCc2ccccc2)OC1` (centres undefined) belongs inactive: 0.913%. The same measure for `N#C/C(=C\c1ccc(N(CCBr)CCBr)cc1)C(N)=O`: inactive: -4.47%.

In the case of `CC(=O)c1ccc(N2CC2c2ccncc2)cc1` (centres undefined), the activation was inactive: -6.74%. The same measure for `CC(=O)Nc1ccc(Oc2c([N+](=O)[O-])cc([N+](=O)[O-])cc2[N+](=O)[O-])cc1`: inactive: 2.94%; for `CC(=O)Nc1ccc([As](=O)(O)O)c(O)c1`: inactive: -4.28%.

Take `CCOc1ccc(C2=NCC(CBr)S2)cc1` (centres undefined): the activation was inactive: 5.97%. To `O=P1(Nc2nc3ccc(Cl)cc3s2)COc2ccccc2O1` (centres undefined) belongs inactive: 1.67%; to `CC(C)(C)C(=O)NC(Sc1ccccc1)C(Cl)(Cl)Cl` (centres undefined), inactive: 1.07%. Consider `CCc1cc(O)c([N+](=O)[O-])c(C)c1[N+](=O)[O-]`, for which the activation is inactive: -1.57%. To `O=C(NC(Sc1ccncn1)C(Cl)(Cl)Cl)c1ccccc1` (centres undefined) belongs inactive: -5.24%; to `Oc1ccccc1CNc1ccccn1`, inactive: -2.66%. To `CC(C)CC(=O)NC(Sc1ccc(Cl)cc1)C(Cl)(Cl)Cl` (centres undefined) belongs inactive: -13.8%. The same measure for `Nc1cc(N)c2nonc2c1[N+](=O)[O-]`: inactive: -7.95%; for `Cc1ccc(N/C(=N/P(=O)(N2CCOCC2)N2CCOCC2)N2CCOCC2)cc1`: inactive: -1.69%; for `NC(=O)c1cc([N+](=O)[O-])cc([N+](=O)[O-])c1N`: inactive: 4.32%. For `Clc1ccc(Cl)c(NC2=NCC(CBr)S2)c1` (centres undefined), the activation was inactive: -1.57%. To `CN1CCCC(OC(=O)C(c2ccccc2)c2ccccc2)C1` (centres undefined) belongs inactive: -7.5%. The same measure for `COc1ccccc1OP(=O)(Nc1ccc(C)cn1)Oc1ccccc1OC`: inactive: 6.89%; for `Nc1cccc2ccc([As](=O)(O)O)cc12`: inactive: -9.59%; for `CCN(N=Nc1nonc1N)c1nonc1N`: inactive: -0.41%. To `O=P(Nc1nc2ccc(Cl)cc2s1)(c1ccccc1)c1ccccc1` belongs inactive: 2.57%. For `CCCC1OP(N)(=O)OCC1CC` (centres undefined), the activation is inactive: -6.04%. For `O=C(O)c1ccccc1[As](=O)(O)O`, the activation is inactive: 0.905%. To `CC(=O)Nc1ccc([As](=O)(O)O)cc1` belongs inactive: -2.03%.

For the compound `Cc1ccc(NP(=O)(Oc2ccccc2F)Oc2ccccc2F)nc1`, the activation was inactive: 8.15%.

With `CCOP(=O)(Nc1ccccc1)OCC`, the activation was inactive: 1.62%. The same measure for `Cc1cc(SC(NC(=O)c2ccc(F)cc2)C(Cl)(Cl)Cl)ncn1` (centres undefined): inactive: -2.41%. With `O=[N+]([O-])c1ncn(CCn2ncnc2[N+](=O)[O-])n1`, the activation was inactive: -2.51%.

In the case of `CC(C)(C)C(=O)NC(Sc1ccncn1)C(Cl)(Cl)Cl` (centres undefined), the activation is inactive: 0.488%. To `O=C(O)CNc1ccc([As](=O)(O)O)cc1` belongs inactive: 1.26%. To `O=[N+]([O-])c1cccc(NC2=NCC(CBr)S2)c1` (centres undefined) belongs inactive: -1.39%; to `COC(=O)C1(C)COP(=O)(Nc2ccccc2)OC1` (centres undefined), inactive: 0.718%.

Regarding `O=P1(N(CCCl)CCCl)OCCCS1` (centres undefined), the activation was inactive: 6.59%. To `O=C(Nc1cc([As](=O)(O)O)ccc1O)c1ccccc1` belongs inactive: -0.677%.

As to `CCN(/C(=N/P(=O)(N1CCOCC1)N1CCOCC1)N1CCOCC1)c1ccc(OC)cc1`, the activation was inactive: 6.71%. To `C[N+]1=C2C=CC=CC=C2SC12C([N+](=O)[O-])=CC([N+](=O)[O-])=C[C-]2[N+](=O)[O-]` (centres undefined) belongs inactive: -10.7%; to `Nc1ccc([As](=O)(O)c2ccc(N)cc2)cc1`, inactive: -5.41%. The same measure for `CC1CCN(C(=O)Oc2c(Cl)cc(Cl)c3cccnc23)CC1`: inactive: -14.2%; for `CN(C)C(=O)OCCc1n(C)cc[n+]1C`: inactive: 4.03%; for `CC(C)=N/N=C(\N)N[N+](=O)[O-]`: inactive: -3.78%. The same measure for `COc1ccc(C2=NCC(CBr)S2)cc1` (centres undefined): inactive: -1.28%. On to `CCc1nc2c(n1)c1c(non1O)c1c2no[n+]1[O-]`, for which the activation is inactive: -1.58%. To `O=[N+]([O-])c1cc([N+](=O)[O-])c(CCNc2ccccc2)c([N+](=O)[O-])c1` belongs inactive: -8.51%; to `Cc1ccc(NP(=O)(Oc2ccccc2)Oc2ccccc2)nc1`, inactive: 5.21%. On to `O=[N+]([O-])c1cccc2n[nH]nc12`, for which the activation is inactive: 2.3%.

Consider `CC(=O)N1C2C3N(C(C)=O)C1C1N(C(C)=O)C(C(N1C(C)=O)N3C(C)=O)N2C(C)=O`, for which the activation is inactive: 7.21%.
